From patent US10774087B2, “Sulfonamide derivative having coumarin skeleton” (Daiichi Sankyo Company, Limited, priority 2016, dated 2020)

The molecules below were run against T1, recombinant MTHFD1 protein (dehydrogenase domain, alone) (Homo sapiens, UniProt P11586) (assay: MTHFD1 dehydrogenase assay). Conditions: 165.4 μM NADP, room temperature 30 minutes, absorbance 355 nm.
T1 construct: recombinant MTHFD1 protein (dehydrogenase domain, alone)
T1 sequence (P11586 2-291 limits assumed): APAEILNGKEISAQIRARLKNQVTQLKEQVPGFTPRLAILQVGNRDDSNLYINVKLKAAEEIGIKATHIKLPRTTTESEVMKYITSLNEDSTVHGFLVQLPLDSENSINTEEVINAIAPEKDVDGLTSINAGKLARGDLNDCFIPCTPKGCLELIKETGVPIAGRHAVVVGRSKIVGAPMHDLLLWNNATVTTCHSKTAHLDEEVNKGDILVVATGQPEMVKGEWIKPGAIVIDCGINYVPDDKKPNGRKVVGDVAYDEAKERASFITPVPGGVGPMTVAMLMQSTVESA
Format: biochemical

Row | SMILES | IC50 [µM]
1 | Cc1c(N2CCN(C)[C@@H](C)C2)ccc2c3c(c(=O)oc12)CN(C(=O)c1ccc(NS(C)(=O)=O)c(Cl)c1)CC3 [Example 4, N-[2-Chloro-4-({8-[(3S)-3,4-dimethylpiperazin-1-yl]-7-methyl-5-oxo-1,5-dihydro-2H-chromeno[3,4-c]pyridin-3(4H)-yl}carbonyl)phenyl]methanesulfonamide] | 1.1
2 | Cc1c(N2C[C@@H](C)N(C)[C@@H](C)C2)ccc2c3c(c(=O)oc12)CN(C(=O)c1ccc(NS(C)(=O)=O)c(Cl)c1)CC3 [Example 14, N-[2-Chloro-4-({7-methyl-5-oxo-8-[(3R,5S)-3,4,5-trimethylpiperazin-1-yl]-1,5-dihydro-2H-chromeno[3,4-c]pyridin-3(4H)-yl}carbonyl)phenyl]methanesulfonamide] | 4.9
3 | Cc1c(N2CCN(C)CC2)ccc2c3c(c(=O)oc12)CN(C(=O)c1ccc(NS(C)(=O)=O)c(Cl)c1)CC3 [Example 1, N-(2-chloro-4-{[7-methyl-8-(4-methylpiperazin-1-yl)-5-oxo-1,5-dihydro-2H-chromeno[3,4-c]pyridin-3(4H)-yl]carbonyl}phenyl)methanesulfonamide] | 6.4
4 | Cc1c(N2CCN(C)CC2)ccc2c3c(c(=O)oc12)CN(C(=O)c1ccc(NS(C)(=O)=O)c(OC(F)(F)F)c1)CC3 [Example 3, N-[4-{[7-Methyl-8-(4-methylpiperazin-1-yl)-5-oxo-1,5-dihydro-2H-chromeno[3,4-c]pyridin-3(4H)-yl]carbonyl}-2-(trifluoromethoxy)phenyl]methanesulfonamide] | 2.9
